Experimental data taken from ChEMBL document CHEMBL4265883, “Nav1.7 inhibitors for the treatment of chronic pain” (Bioorg Med Chem Lett, 2018).

Species: Mus musculus
Assay: Toxicity in mouse assessed as mortality
Conditions: in vivo

## NC1=N[C@H](O)[C@H]2[C@H]3O[C@]4(O)O[C@@H]([C@H](O)[C@@]2(N1)[C@@H]4O)[C@]3(O)CO
  LD50: 0.3 mg/kg
